## Apparent affinities of Ab-14 variants for a coronavirus HR2 peptide

Binding partner: SARS-CoV-2 spike HR2 peptide, sequence PDVDLGDISGINAS.

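The parent was found by panning a naive human phage display library on the peptide. AAYL50 was designed without a model: most single CDR substitutions and a random sample of double and triple ones. AlphaSeq pools MATa yeast showing the antibodies with MATalpha yeast showing the peptide. After mating in shaken culture at 30 °C for 16 h, diploids were selected and their barcode pairs sequenced. The ratio of observed to expected reads was calibrated, replicate by replicate, on BCL2-family standards whose Kd was known from biolayer interferometry. Mating was done three times.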

Ab-14 is the parent antibody, in scFv form: VH, then the linker GGGGSGGGGSGGGGS, then VL. The heavy chain is unchanged in all variants.
VH: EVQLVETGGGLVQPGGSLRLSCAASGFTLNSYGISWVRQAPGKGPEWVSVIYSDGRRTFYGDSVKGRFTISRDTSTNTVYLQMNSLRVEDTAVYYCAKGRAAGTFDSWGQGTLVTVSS
VL: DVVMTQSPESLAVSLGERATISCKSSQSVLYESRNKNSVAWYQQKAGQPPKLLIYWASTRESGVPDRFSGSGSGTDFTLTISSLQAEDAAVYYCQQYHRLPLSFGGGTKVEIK

Variants are written as CDR1, CDR2 and CDR3 of the light chain (limits as in the source). Parent: KSSQSVLYESRNKNSVA, WASTRES, QQYHRLPLS. All variants listed here change T59 of the VL, counted from its first residue. Values are log10 of the apparent Kd in nM; lower means stronger binding. Replicates are averaged; those with no signal do not enter the mean. "nd" marks a missing value. The strain was present, yet no cells mated with the target were sequenced in that replicate, which points to weak or no binding. Background: pairings of library AAYL50 with three empty control strains gave a value in 18% of cases (median 4.19, 5th percentile 2.99). Values in that range, when seen in few replicates, are hard to tell from nonspecific mating.

| CDR-L1 | CDR-L2 | CDR-L3 | log10 Kd, replicates | mean log10 Kd (nM) |
|---|---|---|---|---|
| KSSQSVLYESRNKNSVA | WNSQRES | QQYHRLHLS | nd nd 2.03 | 2.03 |
| KSSCSVLYMSRNKNSVA | WASNRES | QQYHRLPLS | 5.03 nd nd | 5.03 |
| KSSQSGLYESRNKNSVA | WASYRES | QQYHRLPLS | 2.12 2.17 2.30 | 2.20 |
| KSSQSVLYESRNKNSYA | WASWRES | YQYHRLPLS | nd nd nd | nd |
| KSSQSVLYESRNKNSVR | WATGRES | QQYHRLPLS | nd nd nd | nd |
| KSSQSWLYESRNKNSVA | WASQRES | QQYKRLPLS | 0.65 0.87 0.78 | 0.77 |
| KSSQSVLYESRNKNSVA | WASSRES | QQYGRLPLY | nd nd nd | nd |
| RSSQSVLYESRNKNSVA | AASHRES | QQYHRLPLS | 0.98 1.03 0.95 | 0.99 |
| KSSQSVLYESRNKGSVA | WASDRES | QQYHRLPLS | 2.58 1.71 1.64 | 1.98 |
| KSSQSVLYESRNKNSVA | WASVRES | QHYHRLPLS | 1.23 1.50 1.58 | 1.44 |
| KSSQSVLYESRNDNSVA | WASHRES | QQYHVLPLS | 0.43 0.72 0.64 | 0.60 |
| KSSQSVLYESRNKNSVA | KASYRES | QQYHGLPLS | 1.25 1.11 2.13 | 1.50 |
| KQSQSVLYRSRNKNSVA | WASSRES | QQYHRLPLS | nd nd 4.87 | 4.87 |
| KSSQSVLYESRNKNSVA | WASHRES | QQYHPLPLS | 0.85 1.11 0.75 | 0.90 |
| KSSQSVLYESRNKNSVA | WASDRES | QPYHRLRLS | nd 4.19 nd | 4.19 |
| KSSQSVLYWSRGKNSVA | WASERES | QQYHRLPLS | 2.11 1.63 2.66 | 2.13 |
| KSSQSVLYEKMNKNSVA | WASNRES | QQYHRLPLS | 0.72 0.88 0.87 | 0.82 |
| WSSQNVLYESRNKNSVA | WASIRES | QQYHRLPLS | 2.45 2.35 2.64 | 2.48 |
| KSSQSVLYESRNNNSVA | WASIRES | QQYDRLPLS | 2.46 1.45 2.59 | 2.17 |
| KSSQSVLYEIRPKNSVA | WASGRES | QQYHRLPLS | nd nd nd | nd |
| KGSQSVLYESRNKNSVR | WASQRES | QQYHRLPLS | nd nd nd | nd |
| KSSQSVLYESANKNSVA | WASERES | QQPHRLPLS | 0.24 0.49 0.39 | 0.37 |
| KSSQSVLNESRNKNSVA | WASSRES | QQAHRLPLS | 4.44 3.93 2.57 | 3.65 |
| KSRQSVLYESRNKNSVA | WASDRSS | QQYHRLPLS | 2.38 2.11 2.37 | 2.28 |
| KSSQSVLYESRNKNSVA | WASSRES | QAYHRLPRS | nd nd nd | nd |
| KSSQSVLYESRNKNSRA | WASDRES | QQYHSLPLS | 3.69 3.90 6.39 | 4.66 |
| KSSVSVLYESRNWNSVA | WASHRES | QQYHRLPLS | 2.92 3.08 3.29 | 3.10 |
| KSSQSVLYESRNKNSVA | WASSRES | QQYHRLPLS | 1.68 1.58 1.71 | 1.65 |
| KSSQSVLYESRNKNSVA | WASNRES | MQYHRLPLA | 1.38 1.33 1.33 | 1.35 |
| KSSQSVLYESRNKNSVA | HASNREN | QQYHRLPLS | 5.46 2.45 nd | 3.95 |
| KSSQSVLYESYNVNSVA | WASYRES | QQYHRLPLS | 1.18 1.50 1.31 | 1.33 |
| KFSQSVLYESRNKNSVA | WASFREM | QQYHRLPLS | 1.22 1.24 1.30 | 1.25 |
| KSSQSVLYESRNENSVA | WASRRES | QQYHRVPLS | nd nd nd | nd |
| KSSQSVLYESRNKNSVA | WHSNRES | QQYHRIPLS | nd 2.74 nd | 2.74 |
| KSSQSVLYESRNKNSVA | WTSRRSS | QQYHRLPLS | 1.79 2.47 2.28 | 2.18 |
| KSSQSVLYESRNKNAVA | WALWRES | QQYHRLPLS | 2.77 3.78 4.83 | 3.79 |
| KSSPSNLYESRNKNSVA | WASHRES | QQYHRLPLS | 1.89 1.94 2.14 | 1.99 |
| KSSQSVLYQSRNDNSVA | WASHRES | QQYHRLPLS | 0.45 0.68 0.62 | 0.58 |

In this assay the parent's reference entry averaged 0.65; its copy inside this library read 1.68.

Reference: Engelhart et al. 2022, doi:10.1038/s41597-022-01779-4. File: FLAb, binding data.